The results in this text go back to article PMC2645950 (Journal of medicinal chemistry, 2008).

This assay has as its target T1, human alkyltransferase (wild type) (Homo sapiens, UniProt P16455).
T1 sequence (P16455 1-207): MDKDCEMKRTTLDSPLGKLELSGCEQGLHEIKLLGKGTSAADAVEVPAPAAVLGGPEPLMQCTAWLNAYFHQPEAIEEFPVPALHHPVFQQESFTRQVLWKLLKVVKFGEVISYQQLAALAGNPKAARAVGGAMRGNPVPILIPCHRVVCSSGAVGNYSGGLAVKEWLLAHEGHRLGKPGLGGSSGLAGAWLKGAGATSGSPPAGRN
As to the kind of experiment: Inactivation of purified recombinant human alkyltransferase in vitro. It counts as biochemical. The conditions noted are these: assayed in the presence of DNA.

`Nc1nc(OCc2ccccc2)c2nc[nH]c2n1` [BG, O^6-Benzylguanine]: the ED50 was 0.1 µM.
